Values quoted from earlier work, collected in patent EP1241153A1, “GAS-GENERATING AGENT COMPOSITION” (dated 2001).

System: rat

In the case of `N.N.N1=NC(=C2N=NN=N2)N=N1`, the “LD50 (oral-rat)” value is given as 2,000 mg/kg.
